Screening results from PubChem.
HEK293 tox: cytotoxic in the GLP-1 receptor inverse agonist counter-screen. actives 0.13% (n = 410,000). AID 624418. Potency, µM (highest dose often 38.3 µM), for inactives: at the highest dose activity change, negative = inhibition, hits mostly inhibitors. HEK293 cAMP-luciferase reporter cells, luminescence, 24 h;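 further: loss of luciferase light is scored as toxicity; potency means the concentration at half of the fitted maximal effect; on the % scale 0 is the no-effect control and ±100 the full control effect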
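Step one: seed cells (200 cells/uL, DMEM with 10% Nu serum, 1% pen-strep). Step two: 12-hour incubation at 37 deg C. Step three: pin 23 nL compound, incubate 24 hr. Step four: add luciferase reagent, read luminescence 12 min later.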
GLP-1R agonist: agonists of human GLP-1 receptor. AID 624172. Potency, µM (series often up to 45.6 µM), inactives show at the highest dose activation, hits mostly activators. HEK293 GLP-1R CRE-luciferase, luminescence, 4-6 h; cells express a hypersensitive GLP-1R form. actives 0.007% (n = 380,000). P43220; further: potency means the concentration at half of the fitted maximal effect; % of control where 0% means no effect
miR-21 reporter: miR-21 reporter, rising signal | 340,000 tested, under 10 active | AID 2288 | HeLa miR-21 FLuc reporter, luciferase, 48 h | Potency, µM (titrated, usually from 38.3 µM), for inactives: at the highest dose reporter change, positive = more light; active = well fitted rising curve with a large enough effect; inconclusive = small, poorly fitted or top-dose-only effect; inactive = no such curve, though single readings can be large or run the other way;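 further: % of control where 0% means no effect; miR-21 action dims this reporter so a rising signal means less miR-21 action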
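HeLa miR-21-FLuc reporter line, endogenous miR-21; 2000 cells/well in DMEM/10% FBS; compound titration up to ~40uM final, 48 h, 37 degree Celsius; luciferase detection reagent, 15 min lysis, CCD luminescence.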
PTHR1 agonist: PTHR1 (human) receptor agonism | Q03431 | actives 0.075% (n = 410,000) | HEK293 GP2 PTHR1 cells, GloSensor cAMP luminescence, 1 h | Potency, µM (top dose mostly 115 µM), without a hit: top-dose activation, actives largely listed as activators | AID 743266; further: potency means the concentration at half of the fitted maximal effect; nearly all actives have a fitted effect of over 55% in size
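HEK-293-derived GP2 cells expressing PTHR1 and a GloSensor cAMP reporter, 3,000/well, plated overnight, given luciferin plus IBMX (each 0.5 mM as added) for 1 h at 37 °C, then compound for 1 h at 37 °C. Luminescence was read after 15 min at room temperature.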
Pin1 inh: blocks the human prolyl isomerase Pin1; Q13526; Pin1 FP peptide displacement, HiFluor488, 10 min; Potency, µM (titrated, usually from 115 µM), without a hit: at the highest dose activity, negative = inhibition, hits mostly inhibitors; actives 0.009% (n = 390,000); AID 504891; active means well fitted inhibition curve with a large enough effect in the polarisation, with a control signal flat, not every such curve was filed as active; inconclusive means small, poorly fitted or top-dose-only effect, or effect the other way, or a change in a side signal; inactive means no such curve, though single readings can be large or run the other way; the % refers to the polarisation; further: potency means the concentration at half of the fitted maximal effect; on the % scale 0 is the no-effect control and ±100 the full control effect
GLP1R inv ag: acts as inverse agonist at human GLP-1 receptor | actives 1.6% (n = 410,000) | P43220 | Potency, µM (top dose mostly 38.3 µM), for inactives: top-dose activity change, negative = inhibition, usual class: inhibitors | HEK293 GLP-1R CRE-luciferase, luminescence, 24 h; GLP-1R form is constitutively active; further: potency means the concentration at half of the fitted maximal effect; on the % scale 0 is the no-effect control and ±100 the full control effect; nearly all actives have a fitted effect of over 55% in size
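Assay principle: reduced luminescence from a cAMP-responsive reporter in HEK293 cells co-expressing a constitutively active GLP-1R. Conditions: 24 hr compound incubation, 37 deg C, 5% CO2.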
Active calls of the source: *; i = inactive; ? = inconclusive; . = no result given; [ ] = another dose, or the depositor's remark. Shown are actives, neighbours in structure and some others; about 1.7% of the full set was active somewhere. Unless noted, the call rests on the fitted dose curve; in most records, active means well fitted curve in the direction sought with a large enough effect; inconclusive means small, poorly fitted or top-dose-only effect, or another doubt; inactive means no such curve, though single readings can be large; an effect the other way counts as inactive or inconclusive.

Letters: A = HEK293 tox; B = GLP-1R agonist; C = miR-21 reporter; D = PTHR1 agonist; E = Pin1 inh; F = GLP1R inv ag
Cc1ccc(/C=C/c2onc(C)c2S(=O)(=O)N2CCC(C(=O)N3CCCCC3)CC2)cc1
  A = -6%; B = -1%; C = -4%; D = -22%; E = 7%; F = ?
Cc1ccc(/C=C/c2onc(C)c2S(=O)(=O)N2CCC(C(=O)N3CCN(c4cc(C)ccc4C)CC3)CC2)cc1
  A = 7%; B = -2%; C = 9%; D = -17%; E = 5%; F = -42%
CCCN1CCN(C(=O)C2CCN(S(=O)(=O)c3c(C)noc3/C=C/c3ccc(C)cc3)CC2)CC1
  A = ?; B = 8%; C = -1%; D = i; E = -7%; F = 3.2µM*
COc1ccc(/C=C/c2onc(C)c2S(=O)(=O)N2CCC(C(=O)N3CCCCCC3)CC2)cc1
  A = 18%; B = 2%; C = 12%; D = -5%; E = 9%; F = 5µM*
COC(=O)c1nc(N2CCN(S(=O)(=O)c3ccc(C)cc3)CC2)c2ccccc2n1
  A = .; B = .; C = .; D = .; E = 2%; F = .
Cc1cc(=O)[nH]c(SCC2COC3(CCCCC3)O2)n1 (stereo not given)
  A = 3%; B = -2%; C = -5%; D = i; E = 2%; F = 0%
NCCNC[C@@H]1COC2(CCCCCCCCCCC2)O1
  A = -29%; B = 17%; C = 9%; D = -17%; E = -1%; F = 5µM*
Cc1ccc(NS(=O)(=O)c2cc3c(cc2-c2cn[nH]c2)NC(=O)CO3)cc1C
  A = .; B = .; C = .; D = .; E = -9%; F = .
CNC(=S)N/N=C(\C)c1ccc(Cl)c(Cl)c1
  A = ?; B = 9%; C = -8%; D = i; E = -5%; F = ?
CNC(=S)NN=C(C)CCCC(C)=NNC(=S)NC
  A = 1.8µM*; B = -4%; C = .; D = -4%; E = -3%; F = ?
CCOc1ccc(CN2CCN(Cc3cccc4c3OCO4)CC2CCO)cc1 (stereo not given)
  A = -1%; B = 15%; C = 0%; D = i; E = -7%; F = ?
CCOc1ccc(CN2CCN(Cc3cc4c(cc3Cl)OCO4)CC2CCO)cc1 (stereo not given)
  A = -15%; B = 27%; C = 20%; D = i; E = -7%; F = 7.9µM*
Cc1onc(-c2ccc(Cl)cc2Cl)c1-c1csc(COc2ccccc2)n1
  A = 13%; B = 5%; C = 13%; D = i; E = 4%; F = 2.8µM*
O=C(NCc1ccccc1)C(c1ccccc1)n1c(-c2ccccn2)nc2ccccc21 (stereo not given)
  A = -2%; B = .; C = .; D = -1%; E = .; F = 7.9µM*
O=C(NCc1ccccc1)C(c1ccccc1)n1c(-c2ccncc2)nc2ccccc21 (stereo not given)
  A = 1%; B = .; C = .; D = i; E = .; F = 16%

Grouped by structure: those above with a carbonyl joined to an NH by a bond outside any ring (2)
Letters: A = HEK293 tox; B = GLP-1R agonist; C = miR-21 reporter; D = PTHR1 agonist; E = Pin1 inh; F = GLP1R inv ag
O=C(NCc1ccccc1)C(c1ccccc1)n1c(-c2ccccn2)nc2ccccc21 (stereo not given)
  A = -2%; B = .; C = .; D = -1%; E = .; F = 7.9µM*
O=C(NCc1ccccc1)C(c1ccccc1)n1c(-c2ccncc2)nc2ccccc21 (stereo not given)
  A = 1%; B = .; C = .; D = i; E = .; F = 16%

Carrying on.
Letters: A = HEK293 tox; B = GLP-1R agonist; C = miR-21 reporter; D = PTHR1 agonist; E = Pin1 inh; F = GLP1R inv ag
CCCNC(=O)Cn1c(SCc2ccccc2C)nc2ccncc21
  A = .; B = .; C = .; D = .; E = 1%; F = .
CCCCc1ccc(NC(=O)CC(C)(C)C)cc1
  A = 8%; B = 12%; C = -39%; D = -21%; E = 1%; F = 11µM*
CCc1ccc(OCCCn2c(CCNC(=O)C3CCCCC3)nc3ccccc32)cc1
  A = .; B = .; C = .; D = .; E = -5%; F = .
Cc1ccccc1NC(=O)CN(c1ccc(Cl)cc1Cl)S(=O)(=O)c1ccccc1
  A = 0%; B = .; C = 11%; D = i; E = 22%; F = ?
Cc1ccc(CNC(=O)CN(c2ccc(Cl)cc2Cl)S(=O)(=O)c2ccccc2)cc1
  A = -10%; B = .; C = ?; D = i; E = 20%; F = 10µM*
CC(NC(=O)CN(c1ccc(Cl)cc1Cl)S(=O)(=O)c1ccccc1)c1ccccc1 (stereo not given)
  A = -5%; B = .; C = 21%; D = -18%; E = 10%; F = 8.9µM*
O=C(Cc1ccccc1)NCC(=O)OCC(=O)c1ccc2ccccc2c1
  A = .; B = .; C = .; D = .; E = 2%; F = .
CN1CCCC(C)(C(=O)Nc2cccc(Oc3ccccc3)c2)C1 (stereo not given)
  A = 12%; B = 3%; C = .; D = -1%; E = .; F = 13µM*
COc1cccc(NC(=O)C2(C)CCN2Cc2cccc(OC)c2F)c1 (stereo not given)
  A = 3%; B = 1%; C = .; D = -5%; E = .; F = ?
COc1cccc(CN2CCC2(C)C(=O)Nc2cccc(Oc3ccccc3)c2)c1F (stereo not given)
  A = ?; B = 20%; C = .; D = -16%; E = .; F = 3.2µM*
Cc1ccc(-c2nc(N3CCN(S(=O)(=O)c4ccc(F)cc4)CC3)c3ccc(Cl)cc3n2)cc1
  A = .; B = .; C = .; D = .; E = -4%; F = .
COc1cc(Cl)c(C)cc1NC(=O)C(OC(=O)CNC(=O)c1ccccc1)c1ccccc1 (stereo not given)
  A = .; B = .; C = .; D = .; E = 20%; F = .
COc1ccc(OC)c(-c2noc(N3CCN(c4cc(C)ccc4C)CC3)n2)c1
  A = 7%; B = 3%; C = 3%; D = -39%; E = 1%; F = 8%
Cc1c(C)n(Cc2ccccc2)c2ccc(C(=O)NCCCN3CCOCC3)cc12
  A = -24%; B = 19%; C = 0%; D = -9%; E = -9%; F = 1µM*
O=C(Nc1cccc(Cl)c1)c1ccc(NCCCN2CCOCC2)c([N+](=O)[O-])c1
  A = -10%; B = -10%; C = 1%; D = -38%[57.5 µM]; E = 19%; F = 5µM*
O=C(NCCCN1CCOCC1)c1ccc(Sc2ccccc2Cl)c([N+](=O)[O-])c1
  A = -11%; B = 0%; C = -12%; D = i; E = -1%; F = 3.5µM*
O=C(NCCCN1CCOCC1)c1ccc(Sc2ccc(Br)cc2)c([N+](=O)[O-])c1
  A = 0%; B = 5%; C = -4%; D = i; E = 1%; F = -62%
COc1ccc(NC(=O)C(OC(=O)CNC(=O)c2ccccc2)c2ccccc2)cc1F (stereo not given)
  A = .; B = .; C = .; D = .; E = 0%; F = .
O=C(O)/C=C(/CC(=O)O)C(=O)O
  A = .; B = -5%; C = .; D = .; E = .; F = .
COc1cc(/C=N/Nc2ccc(F)cc2F)cc(OC)c1O
  A = -11%; B = 8%; C = -12%; D = i; E = 4%; F = ?
Cc1ccc(/C=N/Nc2ccc(F)cc2F)s1
  A = -14%; B = 1%; C = -58%; D = -42%; E = -4%; F = 5µM*
Cc1ccc(S(=O)(=O)N2CCN(c3nc(-c4cscn4)nc4ccccc34)CC2)cc1
  A = .; B = .; C = .; D = .; E = 1%; F = .
CCOc1ccc(CNC(=O)C2CCN(Cc3cc4ccccc4n3Cc3ccccc3C)CC2)cc1
  A = 6%; B = .; C = 18%; D = -36%; E = 29%; F = 7.1µM*
N#Cc1nc(Nc2cc(F)cc(F)c2)nc(NC2CCCC2)n1
  A = .; B = .; C = .; D = .; E = 10%; F = .
Cc1ccccc1OCC(=O)N(Cc1ccc(N(C)C)cc1)CC1CCCO1 (stereo not given)
  A = -1%; B = .; C = ?; D = i; E = -4%; F = ?
COc1ccc(OC)c(NC(=O)CSC2=Nc3ccccc3C3=NC(CC(=O)NCc4ccco4)C(=O)N23)c1 (stereo not given)
  A = 17%; B = .; C = -3%; D = -20%; E = -7%; F = 11µM*
CC(C)c1ccc(NC(=O)CSC2=Nc3ccccc3C3=NC(CCC(=O)NC4CCCCC4)C(=O)N23)cc1 (stereo not given)
  A = -3%; B = .; C = 6%; D = i; E = -4%; F = -14%
CC(C)c1ccc(NC(=O)CSC2=Nc3ccccc3C3=NC(CC(=O)NC4CCCCC4)C(=O)N23)cc1 (stereo not given)
  A = -12%; B = .; C = -3%; D = 14%; E = -2%; F = 10µM*

Quoted at random: two entries already listed.
Letters: A = HEK293 tox; B = GLP-1R agonist; C = miR-21 reporter; D = PTHR1 agonist; E = Pin1 inh; F = GLP1R inv ag
COc1ccc(NC(=O)C(OC(=O)CNC(=O)c2ccccc2)c2ccccc2)cc1F (stereo not given)
  A = .; B = .; C = .; D = .; E = 0%; F = .
O=C(O)/C=C(/CC(=O)O)C(=O)O
  A = .; B = -5%; C = .; D = .; E = .; F = .
